# Laboratory results taken from PubChem BioAssay AID463189 (University of Pittsburgh Molecular Library Screening Center, 2010).
# The entries are a selection whose mix differs from that of the whole data set. Activity calls are given as the source filed them.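 How the source made its calls: active means inhibition at or above 50% relative to wild type and mutant plate controls; inactive means inhibition below 50%.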
# Assay: inhibitors of Chlamydomonas gravitaxis, primary screen, whole organism, Chlamydomonas reinhardtii, WT vs cilia-less mutant, absorbance, 96-well (AID 463189);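 further: 0% = wild type cc124 cells in DMSO and 100% = ciliumless bld1 mutant cells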
# Details: OD600 absorbance, 2 days, at 10 µM, stronger effect = higher value
row,SMILES,inhibition
1,CCN(CC)CC(O)COC(=O)C(O)(c1ccccc1)C1CCCCC1 (configuration not stated),inactive: 3.15%
2,N#[O+].[C-]#N.[C-]#N.[C-]#N.[C-]#N.[C-]#N.[Fe+2].[Na+].[Na+],inactive: 7.22%
